Data: publication PMC9230784, “Development of a Novel Class of Pyridazinone Derivatives as Selective MAO-B Inhibitors” (Molecules, 2022)

Chains of the proteins cited; added tags and fusions are not shown.
UniProt P27338, whole entry: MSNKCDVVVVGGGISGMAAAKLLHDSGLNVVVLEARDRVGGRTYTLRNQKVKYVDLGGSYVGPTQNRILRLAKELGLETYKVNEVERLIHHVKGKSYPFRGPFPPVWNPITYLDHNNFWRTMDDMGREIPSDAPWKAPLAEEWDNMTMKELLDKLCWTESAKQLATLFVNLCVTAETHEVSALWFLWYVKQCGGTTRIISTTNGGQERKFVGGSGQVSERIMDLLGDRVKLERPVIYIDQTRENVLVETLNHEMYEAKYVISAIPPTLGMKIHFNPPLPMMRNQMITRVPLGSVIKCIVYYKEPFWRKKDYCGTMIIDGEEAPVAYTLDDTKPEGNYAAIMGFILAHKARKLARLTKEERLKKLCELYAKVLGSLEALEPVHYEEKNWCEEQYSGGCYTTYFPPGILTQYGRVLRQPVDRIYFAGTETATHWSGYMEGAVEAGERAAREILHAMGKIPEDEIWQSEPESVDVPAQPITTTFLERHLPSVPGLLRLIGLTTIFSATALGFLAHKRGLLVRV

Biological target: T1, MAO-B (Homo sapiens, UniProt P27338)
T1 construct: purchased Sigma-Aldrich (St. Louis, MO, USA)
Assay type: biochemical
Conditions: MAO-B versus MAO-A
Experimental: The IC50 values were determined by measuring the residual activity at different concentrations of the compounds and by using GraphPad Prism software 5.0. […] BACE1 inhibitory activities were tested by the BACE1 activity detection kit. The assay method was described previously. Recombinant human MAO-A and MAO-B, AChE from Electrophorus electricus, BChE from equine serum, BACE1, and their substrates and reference inhibitors were purchased from Sigma-Aldrich (St. Louis, MO, USA). […]

O=C(Cn1nc(N2CCOCC2)ccc1=O)NN=Cc1ccc(F)cc1 [TR15] was tested, and the “SI (selectivity index for MAO-B compared with MAO-A)” value was greater than 93.02.
